Target: BCL-XL-glutathione-S-transferase (GST) fusion protein (human) (UniProt Q07817)
Test: fluorescence polarisation; BIM BH3 peptides tested for their BCL-XL binding affinity, as described previously [16]

Protein sequences, listed by entry. Tags and fused reporters are not part of them.
UniProt Q07817, whole entry: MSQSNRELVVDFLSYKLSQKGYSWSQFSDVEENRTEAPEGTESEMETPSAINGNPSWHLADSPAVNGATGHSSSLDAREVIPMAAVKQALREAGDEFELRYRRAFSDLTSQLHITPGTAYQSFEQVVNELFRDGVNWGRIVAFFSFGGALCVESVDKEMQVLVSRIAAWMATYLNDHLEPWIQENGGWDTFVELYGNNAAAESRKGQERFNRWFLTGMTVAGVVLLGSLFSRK

- binding affinity: 4 nM
Substance: wild-type BIM BH3 peptide

— paper PMC12153628
